Antibody variant affinities, Ab-14 heavy chain, assay B

Antigen: PDVDLGDISGINAS, a 14-residue peptide of the SARS-CoV-2 spike HR2 region.

The variants keep the light chain, the linker and the frameworks of Ab-14 (scFv order VH, a (GGGGS)3 linker, VL).
VH: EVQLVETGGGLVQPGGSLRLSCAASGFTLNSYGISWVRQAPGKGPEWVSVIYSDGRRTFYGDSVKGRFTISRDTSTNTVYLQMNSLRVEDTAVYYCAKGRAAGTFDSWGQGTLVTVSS
VL: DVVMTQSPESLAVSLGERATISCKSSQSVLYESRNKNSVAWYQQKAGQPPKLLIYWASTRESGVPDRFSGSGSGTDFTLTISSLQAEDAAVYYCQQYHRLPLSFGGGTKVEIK

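The starting antibody came from a phage panning campaign against this peptide. Designed CDR sequences, proposed from the first random library and measured here. Group labels follow the data file (Ctrl: baseline library sampled from a position-specific scoring matrix, with some repeated check sequences; GPLM: also part of the Gaussian process libraries; HC: hill climbing; Gen: genetic algorithm; a sequence that several methods proposed may carry one label only). Affinity was read by AlphaSeq, a pooled yeast mating assay with surface-displayed partners. The frequency of each diploid, read from paired DNA barcodes, reflects how well the two displayed proteins bind. Each replicate has its own calibration line, from reference interactions of the BCL2 family. Each pool was mated in six replicate cultures.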

Substitutions are numbered in sequence along the VH above, starting at 1 (not Kabat). Numbers give log10(Kd / nM), so 0 is 1 nM and 3 is 1 µM. Smaller is tighter. "ND" means that the variant was in the library but no mating with the target was seen in that replicate; the authors take this as a sign of poor binding, and no number exists. Three control strains display no target. For all heavy chain designs, 1% of the pairings with them gave a signal, with a median of 2.08 and one signal in twenty below 0.84, so weak values seen in few replicates may be background. Also given: how often the same scFv was detected with the empty control strains, with their mean in brackets. Values of this round are not directly comparable with the first-round values of the same sequences. Where one sequence has several entries in the source, the replicates are listed entry by entry, parted by semicolons. The authors averaged sequences with at least three values out of six and counted those with two or fewer as poor binders. Of ten entries with the parent sequence, four were seen in most replicates (averages 0.34 to 2.37), three in one and three in none, so single entries are noisy.

changes,group,"replicates, log10 nM",empty controls
L29I+I34V+G61S+A101D+A102G+S107D,Ctrl,ND / ND / ND / ND / ND / ND,0 of 18
N30E+S31D+T104I,Ctrl,ND / ND / ND / ND / ND / ND,1 of 18 (2.43)
N30D+A101C,Ctrl,ND / ND / 1.13 / ND / ND / ND,0 of 18
S31E+R56Y+F59M+F105S,Ctrl,ND / 1.07 / ND / ND / ND / ND,0 of 18
G99S,Ctrl,ND / ND / ND / ND / ND / ND,1 of 18 (1.97)
S53A+Y60N+G103A,Ctrl,ND / ND / ND / ND / ND / ND,0 of 18
S31K+A101E+G103T,Ctrl,ND / ND / ND / ND / ND / ND,0 of 18
L29E+Y32F+I34R+F59M+R100M,Ctrl,ND / ND / ND / ND / ND / ND,0 of 18
T28H+R56V+S107D,Ctrl,ND / ND / ND / ND / ND / ND,0 of 18
T28R+F59G+S63N,Ctrl,ND / ND / ND / ND / 2.14 / ND,0 of 18
L29I+Y32H+G61I+S107L,Ctrl,ND / ND / ND / ND / ND / ND,0 of 18
G26H+S53A,Ctrl,1.41 / 1.88 / 0.62 / 0.43 / 1.27 / 0.56,0 of 18
Y32W,Ctrl,ND / ND / ND / ND / ND / ND,0 of 18
G103C+S107W,Ctrl,ND / ND / ND / ND / ND / ND,0 of 18
S31E+R56L+F59A,Ctrl,0.01 / -0.05 / -0.15 / -0.06 / -0.08 / -0.07,2 of 18 (2.71)
R56K,Ctrl,1.78 / 1.83 / 1.76 / 1.51 / 1.55 / 1.43,0 of 18
S31E+S63A+T104F,Ctrl,1.30 / 1.90 / 1.56 / 1.23 / 0.91 / ND,0 of 18
R100F+S107Q,Ctrl,ND / ND / ND / 2.68 / ND / ND,1 of 18 (2.43)
T28S+L29I+S31E+S63A+T104C,Ctrl,1.70 / 2.49 / 1.47 / 1.14 / 2.57 / 1.39,0 of 18
N30S+D106R,Ctrl,ND / ND / ND / ND / ND / ND,0 of 18
T28W+L29R+G61S+A102V+F105P,Ctrl,2.97 / ND / ND / ND / ND / 3.21,2 of 18 (2.72)
S31L+T104K,Ctrl,ND / ND / ND / ND / ND / ND,0 of 18
I34G+R57G+F59S+T104P+D106T,Ctrl,ND / ND / ND / ND / ND / ND,0 of 18
S31D+G61D,Ctrl+GPLM_HC,1.05 / 1.92 / 0.73 / 1.37 / 1.09 / 1.21; 1.07 / 0.68 / 1.06 / 0.41 / 0.52 / 1.09,2 of 36 (2.19)
F27R+G99V+S107A,Ctrl,ND / ND / ND / ND / ND / ND,0 of 18
F27E+T28A+A102V,Ctrl,ND / ND / ND / ND / ND / ND,0 of 18
T28S+R100M,Ctrl+GPLM_Gen,0.80 / 0.41 / 0.09 / 0.44 / 1.05 / 0.90; 0.28 / 0.57 / 1.19 / 0.61 / 0.46 / 0.51,0 of 36
S31M+F59Y,Ctrl,0.54 / 0.75 / 1.06 / 0.32 / 0.53 / 0.70,0 of 18
T58L+F59A,Ctrl,ND / ND / ND / 2.86 / ND / ND,0 of 18
N30E+S107Q,Ctrl+GPLM_HC,ND / 1.27 / ND / ND / ND / ND; ND / ND / 0.17 / ND / ND / ND,0 of 36
N30Q+G61D+A101W+S107L,Ctrl,ND / ND / ND / ND / ND / ND,0 of 18
T28A+F59I+R100N,Ctrl,ND / ND / ND / ND / ND / ND,0 of 18
T28N+F59E+S63A,Ctrl,0.54 / 1.11 / 0.52 / 1.32 / 1.65 / 0.86,0 of 18
S31E+R56E+G61T+R100K+A101L,Ctrl,-0.56 / -0.69 / 0.02 / -0.52 / -0.23 / 0.03,0 of 18
S53A+F59A+G61L+V64Y,Ctrl,ND / ND / ND / ND / ND / ND,0 of 18
S31Q+Y60M,Ctrl,ND / ND / ND / ND / ND / ND,0 of 18
F27Y+N30A,Ctrl,ND / ND / ND / ND / ND / ND,0 of 18
S31N+I34R,Ctrl,ND / ND / ND / ND / ND / ND,0 of 18
G26L+S53A+A101I+S107I,Ctrl,1.05 / ND / 2.61 / ND / ND / ND,0 of 18
N30S+R100D+A101N,Ctrl,ND / 1.26 / ND / 0.53 / 1.38 / ND,0 of 18
G26T+F59S+T104A,Ctrl,ND / ND / ND / ND / ND / ND,0 of 18
I34Y+G103K,Ctrl,ND / ND / ND / ND / ND / ND,0 of 18

Again, the first 5 entries without any signal:

changes,group,"replicates, log10 nM",empty controls
L29I+I34V+G61S+A101D+A102G+S107D,Ctrl,ND / ND / ND / ND / ND / ND,0 of 18
N30E+S31D+T104I,Ctrl,ND / ND / ND / ND / ND / ND,1 of 18 (2.43)
G99S,Ctrl,ND / ND / ND / ND / ND / ND,1 of 18 (1.97)
S53A+Y60N+G103A,Ctrl,ND / ND / ND / ND / ND / ND,0 of 18
S31K+A101E+G103T,Ctrl,ND / ND / ND / ND / ND / ND,0 of 18

Values reported by Li et al. 2023, doi:10.1038/s41467-023-39022-2 (FLAb copy).